{
  "source": "patent US20120289541A1",
  "about": "(NOVARTIS AG, priority 2010, published 2012)",
  "assay": "External ear dosing of 3% moxigel after 10% or 50% IPM pretreatment, MEF microdialysis",
  "conditions": "3% moxigel 9 mg external ear, mean",
  "data": [
    {"molecule": "COc1c(N2C[C@@H]3CCCN[C@@H]3C2)c(F)cc2c(=O)c(C(=O)O)cn(C3CC3)c12", "note": "[moxifloxacin]", "values": [
      {"measurement": "Time over 10 μg/mL", "result": 2847, "unit": "min"}
    ]}
  ]
}
